The subject of the test is lipid processing in zebrafish larvae. Nature of the test: Atorvastatin effect on fluorescent lipid processing (gall bladder labeling) in zebrafish larvae. The following applies: for PED6 labeling of the gall bladder (processing of PED6): zebrafish larvae bathed in PED6 (0.6 μM) with atorvastatin (Lipitor tablet suspension containing 1 mg/ml). The class given is in vivo, Danio rerio.

Turning to `CC(C)c1c(C(=O)Nc2ccccc2)c(-c2ccccc2)c(-c2ccc(F)cc2)n1CC[C@@H](O)C[C@@H](O)CC(=O)O` [atorvastatin], the “PED6 labeling of the gall bladder (processing of PED6)” value is on record as “completely blocked”. Besides, the “effect of exogenous bile on atorvastatin block of PED6 gall bladder labeling” value (tilapia bile extract added to EM (20 μl/ml)) was “reversed this effect”. Besides, the “PED6 labeling of the gall bladder (processing of PED6)” value (listed as Atorvastatin) was “inhibits processing of PED6”.
